The record followed here is US20200353088A1, “PEPTIDE CONJUGATE CGRP RECEPTOR ANTAGONISTS AND METHODS OF PREPARATION AND USES THEREOF” (Auckland UniServices Limited, priority 2017, published 2020).

In this assay the test system is C57BL/6 mice. Put plainly: Antagonism in vivo of capsaicin-induced ear vasodilation (laser Doppler). As to conditions: 960 nmol/kg subcutaneously, 15 minutes. The procedure: 4. Antagonism In Vivo of Capsaicin-Induced Ear Vasodilation in C57BL/6 Mice
On the day of experiment, 10 mM stock solutions of antagonists A and A4 in dimethylsulfoxide were diluted in saline vehicle containing a final amount of 0.1% bovine serum albumin and 3.2% dimethylsulfoxide. Capsaicin solutions were constituted at 3.03 mg/ml by dissolving capsaicin powder (at ≥95% purity) in absolute ethanol. Animal studies were conducted within a room maintained at 20 to 21 degrees Celsius.
The antagonists at a dose of 960 nmol/kg (10 ml/kg in saline containing 0.1% BSA and 3.2% dimethylsulfoxide), or saline vehicle (containing 0.1% BSA and 3.2% dimethylsulfoxide) were each administered subcutaneously to C57BL/6 mice at 10 minutes prior to anesthesia. The absolute injection volumes for A and A4 were adjusted such that the final dose administered was 960 nmol/kg. Mice were then anesthetized with a cocktail that consisted of ketamine and xylazine at 100 mg/kg and 10 mg/kg respectively (10 ml/kg), administered subcutaneously. […]
Mean flux values for both ears (control and capsaicin) at each timepoint (per minute) were analysed using MoorLDI Review 6.1 and Graphpad Prism 7 software. […] Area under the curve (AUC) of the normalised profile baseline was measured for each animal, grouped and compared between the different treatment arms. […]

The structures appear in SMILES notation.

Regarding `CC(C)C[C@H](NC(=O)CNC(=O)[C@H](C)NC(=O)[C@H](CC(C)C)NC(=O)[C@H](CCCNC(=N)N)NC(=O)[C@H](Cc1c[nH]cn1)NC(=O)[C@@H](NC(=O)[C@@H](N)C(C)C)[C@@H](C)O)C(=O)N[C@@H](CC(C)C)C(=O)N[C@@H](CO)C(=O)N[C@@H](CCCNC(=N)N)C(=O)N[C@@H](CO)C(=O)NCC(=O)NCC(=O)N[C@H](C(=O)N[C@H](C(=O)N[C@@H](CCCCN)C(=O)N[C@@H](CC(N)=O)C(=O)N[C@@H](CC(N)=O)C(=O)N[C@@H](Cc1ccccc1)C(=O)N[C@H](C(=O)N1CCC[C@H]1C(=O)N[C@H](C(=O)N[C@@H](CC(N)=O)C(=O)N[C@H](C(=O)NCC(=O)N[C@@H](CO)C(=O)N[C@@H](CCCCN)C(=O)N[C@@H](C)C(=O)N[C@@H](Cc1ccccc1)C(N)=O)C(C)C)[C@@H](C)O)C(C)C)C(C)C)C(C)C` [A, CGRP8-37], the “Attenuation of capsaicin-evoked vasodilatory response compared to control, analysed by AUC (FIGS. 5 and 6)” value was “significant”.
